Measured values taken from PMC7358525, “Characterization of PF-6142, a Novel, Non-Catecholamine Dopamine Receptor D1 Agonist, in Murine and Nonhuman Primate Models of Dopaminergic Activation” (Frontiers in Pharmacology, 2020).

Test system: prepulse inhibition of startle
Test: Mouse prepulse inhibition (PPI) and acoustic startle
Format: in vivo
Conditions: risperidone 0.1-0.56 mg/kg
Procedure: Drug and behaviorally naïve adult male C57BL/6J mice (9–11 weeks of age; n=8 per dose group) were used for PPI experiments. Subjects were tested individually in SR-Lab acoustic startle chambers (San Diego Instruments, San Diego CA, USA) equipped with a restrainer mounted atop a piezoelectric accelerometer which measured transduced movement in response to the presentation of audio stimuli presented through a speaker mounted 20 cm above the animal. Subjects were acclimated to an anteroom adjacent to the testing room at minimum 60 min prior to testing. […] Data were also recorded for no stimulus values to evaluate background level of response. […] Percent PPI was calculated for each individual subject as the relative change in the 120 dB startle response in the presence of each prepulse intensity using the formula: 100-((prepulse-pulse)/pulse)*100 as previously described ([Ralph-Williams et al., 2003]).
The experiment was analyzed using a two-way mixed model ANOVA (lme4 library in R software). […]

## Cc1nc2n(c(=O)c1CCN1CCC(c3noc4cc(F)ccc34)CC1)CCCC2 [risperidone, reference compound]
  acoustic startle responses (120 dB): dose dependently and significantly reduced
